# Apparent affinities of Ab-14 variants for a coronavirus HR2 peptide

Data: MIT Lincoln Laboratory AlphaSeq set, Li et al. 2023, doi:10.1038/s41467-023-39022-2, as distributed in FLAb.

Target peptide (SARS-CoV-2 spike, HR2 region): PDVDLGDISGINAS

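The parent was found by panning a naive human phage display library on the peptide. This is the validation round: designs drawn from the data on random variants, tested in the same kind of assay. Group labels follow the data file (Ctrl: baseline library sampled from a position-specific scoring matrix, with some repeated check sequences; Rand: our label for a block that the file lists under HC and that is probably the random mutants of the ten best first-round binders; En: ensemble of fine-tuned language models; GP: Gaussian process model; GPLM: also part of the Gaussian process libraries; HC: hill climbing; Gen: genetic algorithm; Gibbs: Gibbs sampling; a sequence that several methods proposed may carry one label only). In AlphaSeq, yeast of one mating type display the scFv and yeast of the other type display the target. Pairs that bind mate more often; barcode pairs of the diploids are counted by sequencing. Each replicate has its own calibration line, from reference interactions of the BCL2 family. The assay was run in six technical replicates.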

Ab-14 is the parent antibody, in scFv form: VH, then the linker GGGGSGGGGSGGGGS, then VL. The light chain is unchanged in all variants.
VH: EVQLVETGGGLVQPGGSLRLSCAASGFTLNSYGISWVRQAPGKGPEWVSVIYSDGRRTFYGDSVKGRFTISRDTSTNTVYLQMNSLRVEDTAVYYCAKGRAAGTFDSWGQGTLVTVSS
VL: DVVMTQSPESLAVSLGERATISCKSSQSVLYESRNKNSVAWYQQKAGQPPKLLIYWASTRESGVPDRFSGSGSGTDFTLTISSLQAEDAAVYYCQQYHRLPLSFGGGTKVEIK

Variants are written as CDR1, CDR2 and CDR3 of the heavy chain (limits as in the source). Parent: GFTLNSYGIS, VIYSDGRRTFYGDSVK, GRAAGTFDS. Affinities are written as log10 Kd with Kd in nM; a lower number is a better binder. Averages over replicates are reported, and they cover detected replicates only. A pair that was not seen in any replicate is written "not detected"; this usually means weak binding, but a binder can also be missed.

| # | CDR-H1 | CDR-H2 | CDR-H3 | group | mean log10 Kd (nM) | detected | signal with controls |
|---|---|---|---|---|---|---|---|
| 1 | GFELNSYGIS | VIYSDGRRTFYADNVK | GKNAGTFDS | GP_Gibbs | 0.31 | 6/6 | 0/18 |
| 2 | GFDLDEYGIS | VIYADGMRTAYADSVK | GENAGTFDI | En_Gen | 0.25 | 6/6 | 1/18 |
| 3 | GFDLNEYGIS | VIYADGRRTAYSDSVK | GEAAGFFDI | En_HC | 0.45 | 6/6 | 0/18 |
| 4 | GFNLNSYGIS | VIYSDGRRTFYGDDVK | RRAALTFDS | Ctrl | not detected | 0/6 | 0/18 |
| 5 | GFTLNSYGIS | VIYSDGRRTFYGDSVK | GLEAGTFDT | GPLM_Gen | 0.97 | 5/6 | 0/18 |
| 6 | GFTLNSAGIS | VIYSDGRRTFYGDSVK | GWKAGTFDS | Ctrl | not detected | 0/6 | 0/18 |
| 7 | GFTINSYGIS | VIYADGHRTFYADSVK | GNAAGTFDS | Ctrl | 1.89 | 4/6 | 0/18 |
| 8 | GFDLDEYGIS | VIYADGMRTFYQDSVK | GQAAGTFDQ | En_HC | -0.24 | 6/6 | 0/18 |
| 9 | GFTLNSYGYS | VITSDGRRTFYDDSVK | GQLSGTFDY | Rand | not detected | 0/6 | 0/18 |
| 10 | GFTLNEYGIS | VIRSDGRRTFYTDSVK | GRFAGTFSS | Rand | not detected | 0/6 | 0/18 |
| 11 | GFTLDSYGIS | VIYSDGRRTFYGDSVK | GRNAGTFDS | GPLM_Gen | 0.53 | 6/6 | 0/18 |
| 12 | GFDLEEMGVS | VIYADGIRFAYAQDVK | GQAAGAFDL | En_Gibbs | 3.16 | 1/6 | 0/18 |
| 13 | GFNLNEYGIS | VIYADGMRTFYADSVK | GETAGTFDN | En_HC | -0.04 | 6/6 | 2/18 |
| 14 | GFDLNEYGIS | VIYADGQRTAYIDSVK | GQNAGTFDV | En_Gen | -0.42 | 6/6 | 0/18 |
| 15 | GQNLDEYGIS | VIYADGMRKWYADDVK | GIMSAGVII | En_Gibbs | 1.04 | 1/6 | 0/18 |
| 16 | GFSLNSYGIS | VIYADGRRTWYGDSVK | GRAAGTFDS | GPLM_Gen | 0.08 | 6/6 | 0/18 |
| 17 | GFTLNEYGIS | VIYSDGRRTFYGDSVK | GRAAGTFVF | GPLM_HC | 0.95 | 6/6 | 0/18 |
| 18 | NFDLNSYGIS | VIYSDGRRTFYGDSVK | GKQAGTFDS | GP_HC | not detected | 0/6 | 0/18 |
| 19 | GEDLDEYGIS | VIYADGRKQSYSNAVK | GAVGGNFVQ | En_Gibbs | not detected | 0/6 | 0/18 |
| 20 | GFSLDEYGIS | VIYADGVRTFYADSVK | GNVAGTFDV | En_HC | -0.40 | 6/6 | 0/18 |
| 21 | GFTLNQYGIS | VIYSDGRRTFYADSVK | GRLAGTFDT | GP_HC | 0.05 | 6/6 | 0/18 |
| 22 | GFSLNEYGIS | VIYSDGRRTFYGDQVK | GRQAGTFDS | GP_Gen | -0.22 | 6/6 | 0/18 |
| 23 | GFTLESYGIS | VIYSDGRRTFYDDSVK | GRAAFTFDS | Ctrl | not detected | 0/6 | 0/18 |
| 24 | GFTLNDYGIF | VIYSDGRRTQYIDSVK | GRAAGTFDS | Rand | not detected | 0/6 | 0/18 |
| 25 | GETLNSYGIS | VIYSDGRKTSYGDEVK | GRATGTDDS | Ctrl | not detected | 0/6 | 0/18 |
| 26 | GFDLNEYGIS | VIYADGMRTSYSDSVK | GENAGTFDV | En_Gen | -0.76 | 6/6 | 0/18 |
| 27 | GFSLKSYGIS | VIYSDGRRTAYGDSVK | GRAAGTFDS | GP_Gen | 0.94 | 6/6 | 1/18 |
| 28 | GFNLNEVGIS | VIYADGLRSAYVDAVK | GGVVGVDFV | En_Gibbs | not detected | 0/6 | 0/18 |
| 29 | GKSLEEYGIS | VIYADGQRTAYAETVK | GNNGGVFIY | En_Gibbs | 0.95 | 1/6 | 0/18 |
| 30 | GFDLNEYGIS | VIYADGMRTVYADSVK | GNVAGTFDL | En_Gen | -0.58 | 6/6 | 0/18 |
| 31 | GFTLNSYGIS | VIYSDGRRTFYGDSVK | GNAAGTFDS | Ctrl | 1.72 | 5/6 | 0/18 |
| 32 | GFSLNSYGIS | VIYSDGRRTFYIDSVK | GKAAGTFDQ | GP_Gibbs | 1.60 | 4/6 | 0/18 |
| 33 | GFDLNEYGIS | VIYADGRRTVYADSVK | GNNAGTFIS | En_HC | 2.45 | 5/6 | 0/18 |
| 34 | GFSLNSYGIS | VIYSDGKRTFYSDSVK | GRQAGTFDS | GP_Gen | 0.14 | 6/6 | 1/18 |
| 35 | GFSLNSYGIS | VIYADGRRTFYGDQVK | GKAAGTFDS | GP_Gen | 0.21 | 6/6 | 0/18 |
| 36 | GFTLDDYGIS | VIYSDGRRTFYSDAVK | GRAAGTFDS | Ctrl | 0.54 | 6/6 | 2/18 |
| 37 | GFDLDEYGIS | VIYADGRRTFYQDDVK | GNVAGTFDS | En_HC | -0.59 | 6/6 | 0/18 |
| 38 | GFGLNSYGIS | VIYSDGRRTFYSDSVK | GKQAGTFDS | GP_Gibbs | -0.25 | 6/6 | 0/18 |
| 39 | GFDLNSYGIS | VIYSDGQRTFYVDSVK | GRLAGTFDS | GP_Gibbs | -0.26 | 5/6 | 0/18 |
| 40 | GFSLNEYGIS | VIYSDGRRTFYQDSVK | GRQAGTFDS | GP_Gen | -0.19 | 6/6 | 0/18 |
| 41 | GISLNSYGIS | VIYSDGRRTFYGDSVK | GRAAGTFDS | Ctrl | 2.47 | 4/6 | 1/18 |
| 42 | GFDLNEYGIS | VIYADGVRTAYSDKVK | GNNAGTFDV | En_Gen | -0.52 | 6/6 | 0/18 |
| 43 | GFDLNEYGIS | VIYADGRRTAYSDSVK | GENAGTFDM | En_Gen | -0.60 | 6/6 | 0/18 |
| 44 | GFDLNEYGIS | VIYSDGRRTMYGDSVK | GRCAGTFDS | GP_HC | 0.48 | 5/6 | 0/18 |
| 45 | GFDLNEYGIS | VIYADGRRTFYVDSVK | GEAAGTFDV | En_HC | 0.66 | 6/6 | 0/18 |
| 46 | GKNLDEYGVS | VIYADGKRTAYANNFK | GGNAGFFKS | En_Gibbs | 1.73 | 1/6 | 0/18 |
| 47 | GFTLNDYGIS | VIYSDGRRTFYGDSVK | RRMALVWIS | Rand | 1.01 | 3/6 | 0/18 |
| 48 | GFTLNEYGIS | VIYSDGRRTFYSDSVK | GRTAGTFMS | GP_HC | 1.57 | 5/6 | 0/18 |
| 49 | GFTLNSYGIS | VIYADGMRTFYGDSVK | GRAAGTFDS | Ctrl+GPLM_Gen | 0.64 | 12/12 | 0/36 |
| 50 | GFNLDEYGIS | VIYADGQRTFYADSVK | GEVAGTFDT | En_HC | not detected | 0/6 | 0/18 |
| 51 | GFDLEKYGIS | VIYADGQRVEYDSSVK | GENAGYFMD | En_Gibbs | not detected | 0/6 | 0/18 |
| 52 | GFNLNSYGIS | VIYSDGRRTFYGDSVK | GRTAGTFDL | GP_Gibbs | 1.30 | 5/6 | 0/18 |
| 53 | GGNLDEYGIS | VIYADGKRRQYVDDVK | GSHADMFIM | En_Gibbs | not detected | 0/6 | 0/18 |
| 54 | GFDLNEYGIS | VIYADGMRKAYADSVK | GEVAGTFDV | En_Gen | -0.31 | 6/6 | 1/18 |
| 55 | GFDLNEYGIS | VIYADGMRTAYADSVK | GNNAGTFNV | En_Gen | 0.25 | 6/6 | 0/18 |
| 56 | GFTLDSYGIS | VIYSRGRRTFYGDSVK | GRAAGTALS | Rand | not detected | 0/6 | 0/18 |
| 57 | GKSLNSYGIS | VIYSDGRRTFYADSVK | GRAAGTFDS | GPLM_Gen | not detected | 0/6 | 0/18 |
| 58 | GFTLNDYGIS | VIYSDGRRTFYHDSVK | GRAAGTFVS | GPLM_HC | not detected | 0/6 | 0/18 |
| 59 | GFDLNSYGIS | VIYSDGRRTFYADSVK | GRHAGTFDS | GPLM_Gen | 0.55 | 6/6 | 1/18 |
| 60 | GFTLNDYGIS | VIYSDGRRTFYQDKYK | GRAAGTFDS | Ctrl | not detected | 0/6 | 0/18 |
| 61 | GETLNDHGIS | VIYSDGRRTQYGDSVK | GRAAGTFDS | Ctrl | not detected | 0/6 | 0/18 |
| 62 | GFELNSYGIS | VIYSDGRRTAYGDHVK | GRTAGTFDS | GP_Gibbs | 0.78 | 6/6 | 0/18 |
| 63 | GFNLNEYGIS | VIYADGRRTFYADSVK | GEAAGTFDI | En_HC | -0.41 | 6/6 | 1/18 |
| 64 | GFTLDSYGIS | VIYSDGRRTFYGDSVK | GRAAGTFVQ | GPLM_HC | not detected | 0/6 | 0/18 |
| 65 | GFDLNEYGIS | VIYADGRRTAYSDSVK | GENAGFFDV | En_HC | not detected | 0/6 | 1/18 |
| 66 | GFDLNEYGIS | VIYADGMRTAYADSVK | GEIAGTFDQ | En_Gen | -0.63 | 6/6 | 0/18 |
| 67 | GFDLDEYGIS | VIYADGQRTFYQDSVK | GQAAGTFDQ | En_HC | -0.39 | 6/6 | 0/18 |
| 68 | GFDLNSYGIS | VIYSDGRRTFYIDAVK | GKAAGTFDS | GP_Gen | 0.84 | 5/6 | 0/18 |
| 69 | GFTLNSYGIS | VIYSDGRRTAYHDSVK | GRAAGTFDS | GP_HC | 1.46 | 6/6 | 0/18 |
| 70 | GFTLESYGIS | VIYSDGRRTFYGDQVK | GRTAGTFDS | GP_Gen | 1.89 | 6/6 | 0/18 |

Repeated from above, the 6 best binders with a signal in all replicates:

CDR-H1	CDR-H2	CDR-H3	group	mean log10 Kd (nM)	detected	signal with controls
GFDLNEYGIS	VIYADGMRTSYSDSVK	GENAGTFDV	En_Gen	-0.76	6/6	0/18
GFDLNEYGIS	VIYADGMRTAYADSVK	GEIAGTFDQ	En_Gen	-0.63	6/6	0/18
GFDLNEYGIS	VIYADGRRTAYSDSVK	GENAGTFDM	En_Gen	-0.60	6/6	0/18
GFDLDEYGIS	VIYADGRRTFYQDDVK	GNVAGTFDS	En_HC	-0.59	6/6	0/18
GFDLNEYGIS	VIYADGMRTVYADSVK	GNVAGTFDL	En_Gen	-0.58	6/6	0/18
GFDLNEYGIS	VIYADGVRTAYSDKVK	GNNAGTFDV	En_Gen	-0.52	6/6	0/18

A sequence measured in both rounds can read differently, since the two assays cover different ranges. Where one sequence has several entries in the source, the replicates are pooled. In the paper, a design with two or fewer of six values counts as a poor binder. Three control strains display no target. For all heavy chain designs, 1% of the pairings with them gave a signal, with a median of 2.08 and one signal in twenty below 0.84, so weak values seen in few replicates may be background. The control count says in how many pairings with the empty strains this scFv gave a signal.